Data on 1 molecule can be found in US12360111B2, “G protein-coupled receptor screening systems” (The University of North Carolina at Chapel Hill, priority 2018, dated 2025).

Protein sequences, listed by entry. Tags and fused reporters are not part of them. Lines headed by an entry give the natural chain unless they say otherwise; changes in a name come on top.
UniProt P41145: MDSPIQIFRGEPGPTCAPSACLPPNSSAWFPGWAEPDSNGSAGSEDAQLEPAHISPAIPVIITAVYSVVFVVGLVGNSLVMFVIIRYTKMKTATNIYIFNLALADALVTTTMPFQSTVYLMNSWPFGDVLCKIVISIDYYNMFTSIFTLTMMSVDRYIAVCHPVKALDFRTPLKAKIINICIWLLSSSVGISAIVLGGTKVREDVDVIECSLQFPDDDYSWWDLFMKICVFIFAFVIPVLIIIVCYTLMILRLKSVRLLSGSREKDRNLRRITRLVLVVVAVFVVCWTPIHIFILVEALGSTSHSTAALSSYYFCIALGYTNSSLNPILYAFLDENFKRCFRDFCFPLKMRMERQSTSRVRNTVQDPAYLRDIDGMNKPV

For the experiment, the target named is T1, KOR, Gαi/o-class TRUPATH sensors (Homo sapiens, UniProt P41145).
T1 construct: expressed in transfected cells
It counts as cell-based.

With `COC(=O)[C@@H]1C[C@H](OC(C)=O)C(=O)[C@H]2[C@@]1(C)CC[C@H]1C(=O)O[C@H](c3ccoc3)C[C@]21C` [Salvinorin A], the “efficacy across transducers (in words)” value is recorded as “activated all transducers with equal efficacy”.
